“And” between values parts separate entries of the source, which are not always exact repeats. Equal entries are not always repeated. Where two headings read alike, the source gives them in different places.
Columns and labels:
[1] = tested on: AR-target tissues prostate and seminal vesicles; test: In vivo AR antagonism (Hershberger assay) in intact rats; conditions: for effect on prostate and seminal vesicles weight normalized to body weight (in words): FIGS. 53A, 53B, 20 mg/kg for 13 days
[2] = Metabolic stability in mouse liver microsomes; conditions: for DMPK(MLM) T1/2 (min) / DMPK(MLM) T1/2: Table 1; for stability to in vitro metabolism in MLM (in words): FIG. 15
PR wildtype (wt) = PR wildtype (wt) (Homo sapiens, UniProt P06401); test: PR transactivation
[3] = biological target: glutathione S-transferase (GST) (Schistosoma japonicum, UniProt P08515); test: Mass spectrometry: cross-reactivity with GST; conditions: for cross-reaction with GST: 100 μM, for 1 as % of the AF-1 modifications
[4] = tested on: PSA and FKBP5 in LNCaP cells; test: LNCaP gene expression assay; conditions: FIG. 39
GR wildtype (wt) = GR wildtype (wt) (Rattus norvegicus, UniProt P06536); test: GR transactivation
[5] = Metabolic stability in rat liver microsomes
AR AF-1 (A.A. 141-486) = AR AF-1 (A.A. 141-486) (Homo sapiens, UniProt P10275); test: Mass spectrometry of tryptic digests: covalent binding to AR AF-1
AR full length (AR FL) = AR full length (AR FL) (Homo sapiens, UniProt P10275, T878A); test: AR full length degradation (Western blot); conditions: for AR degradation: Table 2
hAR-LBD (633-919) = hAR-LBD (633-919) (Homo sapiens, UniProt P10275); test: Ligand binding assay (Ki) to AR-LBD; conditions: [3H]mibolerone, recombinant AR-LBD; for Ki: read-out: Binding Ki (nm) (DHT= 1nM)
[6] = biological target: AR splice variant (AR-V7) (Homo sapiens, UniProt P10275); test: AR-SV / AR-V7 degradation (Western blot); conditions: for SARD Activity S.V. (22RV1) % degradation at 10 uM: 22RV1, 10 uM
AR wildtype (wt) = AR wildtype (wt) (Homo sapiens, UniProt P10275); test: Transactivation assay with wt AR (IC50)
AR = AR (Homo sapiens, UniProt P10275); test: Schild's plot, AR transactivation with R1881 dose-response; conditions: Table 2, second part of cell
LNCaP cells = test: LNCaP proliferation (SRB assay); conditions: FIG. 38, 0.1 nM R1881; at 1, 3 and 10 μM
NFkB = NFkB transactivation (p65 and NFkB-LUC)
[7] = tested on: LNCaP cells over-expressing AR; test: AR-target gene expression in LNCaP cells over-expressing AR; conditions: FIG. 47
[8] = Rat pharmacokinetics, serum by LC-MS/MS; conditions: 20 mg/kg oral
LNCaP-AR xenograft = LNCaP-AR xenograft in intact NSG mice; conditions: 60 mpk, 28 days
[9] = tested on: MDA-MB-453 TNBC xenograft; test: MDA-MB-453 TNBC xenograft in NSG mice; conditions: 60 mpk, 28 days
[10] = read-out: PR antagonism (IC50 nM), Table 2
[11] = read-out: GR antagonism (IC50 nM), Table 2
[12] = single value in cell, 1 or 10 μM not stated
[13] = read-out: AR antagonism (IC50 nM), Table 2
[14] = read-out: Wt. IC50, Table 1, with 0.1 nM R1881
[15] = read-out: wtAR transactivation IC50, FIG. 43
[16] = 1 μM (first of two values in cell)
[17] = 10 μM (second of two values in cell)
[18] = read-out: wtAR transactivation IC50, FIG. 41

The chains behind the UniProt entries cited, without tags or fusion partners. Where a name states a change or a piece, a line headed by the entry shows the natural chain unless it says otherwise. Residues count along the entry.
UniProt P06401: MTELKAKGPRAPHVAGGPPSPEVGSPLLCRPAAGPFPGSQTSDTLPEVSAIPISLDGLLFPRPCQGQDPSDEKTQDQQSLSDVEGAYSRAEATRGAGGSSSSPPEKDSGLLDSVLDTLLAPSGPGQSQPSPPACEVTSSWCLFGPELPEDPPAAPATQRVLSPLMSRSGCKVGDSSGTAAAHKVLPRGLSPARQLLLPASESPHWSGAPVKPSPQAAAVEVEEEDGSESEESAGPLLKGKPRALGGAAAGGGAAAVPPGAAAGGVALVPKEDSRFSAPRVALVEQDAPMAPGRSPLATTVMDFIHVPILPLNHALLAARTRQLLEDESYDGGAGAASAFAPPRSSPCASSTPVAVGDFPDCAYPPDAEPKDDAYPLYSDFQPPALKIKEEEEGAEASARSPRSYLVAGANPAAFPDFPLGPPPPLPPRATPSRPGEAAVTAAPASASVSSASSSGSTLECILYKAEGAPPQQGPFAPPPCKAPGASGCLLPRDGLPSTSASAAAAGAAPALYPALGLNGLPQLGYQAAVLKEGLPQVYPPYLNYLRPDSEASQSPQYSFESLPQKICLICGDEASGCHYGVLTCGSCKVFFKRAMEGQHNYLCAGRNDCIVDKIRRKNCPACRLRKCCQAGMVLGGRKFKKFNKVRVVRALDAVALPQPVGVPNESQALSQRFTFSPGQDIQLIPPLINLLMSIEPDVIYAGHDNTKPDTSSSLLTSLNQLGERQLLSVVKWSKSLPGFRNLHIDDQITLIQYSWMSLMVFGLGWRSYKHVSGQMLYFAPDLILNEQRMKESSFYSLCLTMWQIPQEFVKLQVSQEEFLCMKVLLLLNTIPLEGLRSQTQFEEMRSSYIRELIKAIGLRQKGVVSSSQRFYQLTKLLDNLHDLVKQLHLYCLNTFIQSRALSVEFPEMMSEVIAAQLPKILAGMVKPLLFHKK
UniProt P08515, whole entry, looked up: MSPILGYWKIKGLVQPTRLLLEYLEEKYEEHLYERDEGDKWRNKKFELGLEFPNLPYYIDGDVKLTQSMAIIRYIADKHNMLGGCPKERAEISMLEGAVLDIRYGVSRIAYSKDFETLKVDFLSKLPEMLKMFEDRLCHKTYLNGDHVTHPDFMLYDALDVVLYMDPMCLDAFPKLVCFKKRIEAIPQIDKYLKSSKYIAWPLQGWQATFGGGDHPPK
UniProt P06536: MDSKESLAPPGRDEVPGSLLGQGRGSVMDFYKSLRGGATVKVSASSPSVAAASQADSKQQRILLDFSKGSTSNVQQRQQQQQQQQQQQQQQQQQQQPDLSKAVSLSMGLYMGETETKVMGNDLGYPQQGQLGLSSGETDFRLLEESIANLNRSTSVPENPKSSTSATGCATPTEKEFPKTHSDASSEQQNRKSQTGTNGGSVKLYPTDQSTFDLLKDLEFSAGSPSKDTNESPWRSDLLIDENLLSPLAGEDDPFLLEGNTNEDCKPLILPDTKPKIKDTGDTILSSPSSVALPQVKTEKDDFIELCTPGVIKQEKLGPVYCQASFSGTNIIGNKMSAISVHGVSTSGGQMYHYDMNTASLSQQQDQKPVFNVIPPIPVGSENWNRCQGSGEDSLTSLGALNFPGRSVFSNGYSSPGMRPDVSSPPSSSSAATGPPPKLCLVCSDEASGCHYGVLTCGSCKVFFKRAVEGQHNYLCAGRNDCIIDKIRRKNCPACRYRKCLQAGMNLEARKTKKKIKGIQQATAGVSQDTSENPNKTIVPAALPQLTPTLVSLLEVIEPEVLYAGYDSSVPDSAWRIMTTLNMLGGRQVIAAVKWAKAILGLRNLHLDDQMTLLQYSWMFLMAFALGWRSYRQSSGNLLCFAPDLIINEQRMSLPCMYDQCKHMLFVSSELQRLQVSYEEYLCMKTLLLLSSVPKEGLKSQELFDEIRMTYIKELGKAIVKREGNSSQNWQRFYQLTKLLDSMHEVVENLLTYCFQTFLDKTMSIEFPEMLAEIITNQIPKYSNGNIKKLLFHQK
UniProt P10275, 141-486 limits assumed: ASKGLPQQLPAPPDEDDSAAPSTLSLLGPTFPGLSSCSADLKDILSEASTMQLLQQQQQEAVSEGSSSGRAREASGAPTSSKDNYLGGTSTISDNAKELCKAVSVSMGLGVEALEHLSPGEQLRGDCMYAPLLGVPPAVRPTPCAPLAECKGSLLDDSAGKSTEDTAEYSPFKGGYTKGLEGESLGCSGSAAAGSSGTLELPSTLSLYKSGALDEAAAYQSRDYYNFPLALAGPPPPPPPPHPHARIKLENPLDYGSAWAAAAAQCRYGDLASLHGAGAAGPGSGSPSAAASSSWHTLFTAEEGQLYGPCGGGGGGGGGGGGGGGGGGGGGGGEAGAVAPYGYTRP
UniProt P10275, whole entry T878A, looked up: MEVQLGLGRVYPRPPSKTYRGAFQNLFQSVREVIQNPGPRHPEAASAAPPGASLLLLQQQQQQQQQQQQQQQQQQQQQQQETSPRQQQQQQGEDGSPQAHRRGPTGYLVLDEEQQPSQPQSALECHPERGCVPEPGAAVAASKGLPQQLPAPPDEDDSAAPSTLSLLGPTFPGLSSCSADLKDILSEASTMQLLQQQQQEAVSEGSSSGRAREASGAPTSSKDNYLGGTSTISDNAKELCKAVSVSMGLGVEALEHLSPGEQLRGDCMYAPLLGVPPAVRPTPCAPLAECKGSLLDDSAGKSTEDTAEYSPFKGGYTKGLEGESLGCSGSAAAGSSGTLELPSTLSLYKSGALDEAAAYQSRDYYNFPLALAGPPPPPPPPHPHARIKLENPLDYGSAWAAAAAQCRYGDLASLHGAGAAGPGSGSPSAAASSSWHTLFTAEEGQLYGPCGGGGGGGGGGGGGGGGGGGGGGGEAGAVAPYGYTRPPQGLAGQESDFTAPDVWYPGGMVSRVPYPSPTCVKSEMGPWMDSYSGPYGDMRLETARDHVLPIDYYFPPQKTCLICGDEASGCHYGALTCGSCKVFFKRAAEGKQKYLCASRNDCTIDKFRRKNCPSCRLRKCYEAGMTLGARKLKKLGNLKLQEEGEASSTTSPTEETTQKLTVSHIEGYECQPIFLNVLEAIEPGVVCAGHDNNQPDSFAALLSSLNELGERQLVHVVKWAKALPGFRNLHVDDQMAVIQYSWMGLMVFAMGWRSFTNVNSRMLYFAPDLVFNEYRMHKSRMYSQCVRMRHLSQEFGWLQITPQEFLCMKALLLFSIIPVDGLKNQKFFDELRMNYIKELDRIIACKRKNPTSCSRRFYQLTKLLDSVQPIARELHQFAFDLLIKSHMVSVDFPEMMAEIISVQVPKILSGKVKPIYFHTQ
UniProt P10275, 633-919 limits assumed: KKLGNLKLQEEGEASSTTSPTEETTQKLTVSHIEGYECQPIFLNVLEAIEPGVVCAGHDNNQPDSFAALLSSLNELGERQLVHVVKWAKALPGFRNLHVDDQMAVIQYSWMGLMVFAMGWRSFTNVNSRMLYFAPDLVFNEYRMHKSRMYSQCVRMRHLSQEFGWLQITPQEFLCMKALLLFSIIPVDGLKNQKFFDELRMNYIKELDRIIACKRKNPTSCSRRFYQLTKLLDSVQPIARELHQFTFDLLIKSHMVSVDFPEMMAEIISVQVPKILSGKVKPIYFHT

## C=C(Cn1cc(F)cn1)C(=O)Nc1ccc(C#N)c(C(F)(F)F)c1
[1]
  effect on prostate and seminal vesicles weight normalized to body weight (in words): inhibited AR-target tissues prostate and seminal vesicles
[2]; FIG. 21, Phase I and II conditions
  half-life in MLM: 41 min
[2]
  DMPK(MLM) T1/2 (min): Infinity
PR wildtype (wt); [10]
  IC50: 745 nM
[3]
  cross-reaction with GST: about 10%
[4]
  AR dependent gene expression of PSA and FKBP5 (in words): dose-dependently decreased
GR wildtype (wt); read-out: GR IC50, FIG. 23
  IC50: 776 nM
GR wildtype (wt); [11]
  IC50: 1040 nM
[5]; FIG. 20
  time stable in RLM: > 60 min
[5]; FIG. 20, Phase I stability
  estimated half-life in RLM: about 84 min

## C=C(Cn1cc(C#N)cn1)C(=O)Nc1ccc(C#N)c(C(F)(F)F)c1
AR AF-1 (A.A. 141-486); Table 2, first part of cell
  MassSpec Binding: Yes/Yes (see Figures 25A/2)
AR full length (AR FL)
  AR degradation: Yes (see Figures 17 and 19)
AR full length (AR FL); [12]
  SARD Activity Full Length % degradation at 1,10 μm: 0%
hAR-LBD (633-919)
  Ki: 1.23 µM
[6]
  SARD Activity S.V. (22RV1) % degradation at 10 uM: 51%
[6]; Table 2
  AR-V7 degradation: Yes (see Figures 17 and 19)
[2]
  stability to in vitro metabolism in MLM (in words): stable to in vitro metabolism by mouse liver microsomes
  DMPK(MLM) T1/2: 18.19 min
PR wildtype (wt); read-out: PR IC50, FIG. 26
  IC50: 125 nM
PR wildtype (wt); [10]
  IC50: 125 nM
[3]
  alkylation / cross-reaction with GST (in words): alkylated cysteine residues in GST
AR wildtype (wt); [13]
  IC50: 1420 nM
AR wildtype (wt); [14]
  IC50: 1420 nM
AR wildtype (wt); read-out: wtAR transactivation IC50, FIG. 1, COS cells
  IC50: 461 nM
AR wildtype (wt); [15]
  IC50: 851 nM
AR
  Schild's plot: Yes/Yes (see Figures 25A/2)
GR wildtype (wt); read-out: GR IC50, FIG. 23
  IC50: 630 nM
GR wildtype (wt); read-out: GR IC50, FIG. 26
  IC50: 1430 nM

## N#Cc1ccc(NC(=O)C(Cn2cc(F)cn2)Cn2cc(F)cn2)cc1C(F)(F)F
[2]
  DMPK(MLM) T1/2: 26.98 min
GR wildtype (wt)
  GR inhibition (in words): did not demonstrate significant inhibition of GR
GR wildtype (wt); [11]
  IC50: > 1000 nM

## CNC(=O)c1ccc(N2C(=S)N(c3ccc(C#N)c(C(F)(F)F)c3)C(=O)C2(C)C)cc1F
[4]
  AR dependent gene expression of PSA and FKBP5 (in words): dose-dependently decreased
LNCaP cells
  antiproliferative efficacy reached: approximately 40%

## C/C(=C\C(=O)Nc1ccc(C#N)c(C(F)(F)F)c1)n1cc(F)cn1
AR full length (AR FL); [16]
  SARD Activity Full Length % degradation at 1,10 μm: 8%
AR full length (AR FL); [17]
  SARD Activity Full Length % degradation at 1,10 μm: 60%
hAR-LBD (633-919)
  Ki: 0.319 µM
[6]
  SARD Activity S.V. (22RV1) % degradation at 10 uM: 45%
PR wildtype (wt); [10]
  IC50: 465 nM
AR wildtype (wt)
  inhibition of wtAR transactivation (in words): comparable
AR wildtype (wt); [13]
  IC50: 364 nM
AR wildtype (wt); [14]
  IC50: 364 nM
AR wildtype (wt); read-out: wtAR transactivation IC50, FIG. 6, COS7 cells, 0.1 nM R1881
  IC50: 364 nM
GR wildtype (wt); [11]
  IC50: 193 nM

## C=C(CO[C@@](C)(Cn1cc(C#N)cn1)C(=O)Nc1cnc(C#N)c(C(F)(F)F)c1)C(=O)OC
NFkB
  inhibition of NFkB transactivation (in words): not NFkB
[7]
  AR-target gene expression (in words): inhibited AR-target gene expression in prostate cancer cells
[1]; 20 mg/kg/day oral, 14 days
  prostate weight reduction relative to intact control: 45% and 40%
  seminal vesicles weight reduction relative to intact control: 60%
[1]
  effect on prostate and seminal vesicles weight normalized to body weight (in words): inhibited AR-target tissues prostate and seminal vesicles
[2]
  stability to in vitro metabolism in MLM (in words): stable to in vitro metabolism by mouse liver microsomes
  DMPK(MLM) T1/2 (min): Infinity
[3]
  cross-reaction with GST: 2-5%
[8]
  half-life in rats (in words): long half-life in rats
[4]
  AR dependent gene expression of PSA and FKBP5 (in words): dose-dependently decreased
LNCaP-AR xenograft
  LNCaP-AR xenograft growth (in words): inhibited growth
GR wildtype (wt); FIG. 9
  GR activity, efficacy: about 20%
GR wildtype (wt); [11]
  IC50: 6220 nM
[9]
  MDA-MB-453 TNBC xenograft growth (in words): inhibited growth

## C/C(=C\c1ccc(F)cc1)C(=O)Nc1ccc(C#N)c(C(F)(F)F)c1
AR wildtype (wt)
  inhibition of wtAR transactivation (in words): both inhibited AR transactivation
AR wildtype (wt); [14]
  IC50: 732 nM
AR wildtype (wt); [18]
  IC50: 732 nM

## N#Cc1cnn(CC(Cn2cc(C#N)cn2)C(=O)Nc2ccc(C#N)c(C(F)(F)F)c2)c1
AR full length (AR FL)
  AR degradation: Yes (see Figure 17)
AR full length (AR FL); Western blot, LNCaP, LNCaP-V7 or 22RV1 cells
  AR (full length) degradation (in words): less robust
AR full length (AR FL); [12]
  SARD Activity Full Length % degradation at 1,10 μm: 77%
[6]
  SARD Activity S.V. (22RV1) % degradation at 10 uM: 0%
AR wildtype (wt); [13]
  IC50: 356 nM
AR wildtype (wt); [14]
  IC50: 356 nM

## N#Cc1ccc(NC(=O)/C=C/n2cc(F)cn2)cc1C(F)(F)F
AR wildtype (wt); [13]
  IC50: 1140 nM
AR wildtype (wt); [14]
  IC50: 1140 nM

## N#Cc1ccc(NCn2ccc3cc(F)ccc32)cc1C(F)(F)F
AR full length (AR FL); [16]
  SARD Activity Full Length % degradation at 1,10 μm: 16%
AR full length (AR FL); [17]
  SARD Activity Full Length % degradation at 1,10 μm: 80%
hAR-LBD (633-919)
  Binding Ki (nm) (DHT= 1nM): No binding
AR wildtype (wt); [14]
  IC50: 726 nM

## C=C(Cn1ccc2cc(F)ccc21)C(=O)Nc1ccc(C#N)c(C(F)(F)F)c1
AR wildtype (wt); [13]
  IC50: 4950 nM
AR wildtype (wt); [14]
  IC50: 4950 nM
AR wildtype (wt); [15]
  IC50: 6530 nM
AR
  Schild's plot: N.D./Yes (N.D.)/(see Figures 8, 11)
GR wildtype (wt); [11]
  IC50: 5760 nM

## C[C@](O)(CC1N=CC(C#N)=N1)C(=O)Nc1cnc(C#N)c(C(F)(F)F)c1 (some centres unmarked)
AR AF-1 (A.A. 141-486); pre-incubation with 100 μM competitor, then 30 μM 6
  competition for binding to AF-1 (in words): competed with 1 and 6 for binding to AF-1

## C/C(=C/C(=O)Nc1ccc(C#N)c(C(F)(F)F)c1)n1cc(F)cn1
AR full length (AR FL); [12]
  SARD Activity Full Length % degradation at 1,10 μm: 92%
[6]
  SARD Activity S.V. (22RV1) % degradation at 10 uM: 26%

## C/C(=C\C(=O)Nc1ccc(C#N)c(C(F)(F)F)c1)c1ccc(F)cc1
AR wildtype (wt)
  inhibition of wtAR transactivation (in words): both inhibited AR transactivation
AR wildtype (wt); [14]
  IC50: 18.2 nM
AR wildtype (wt); [18]
  IC50: 18 nM
